Reference: patent US10202326B2, “Polyprenylated phloroglucinol compounds as potent P-glycoprotein inducers” (COUNCIL OF SCIENTIFIC & INDUSTRIAL RESEARCH, priority 2014, dated 2019)

Tested on: P-glycoprotein (Pgp)
Assay: Pgp-induction assay, rhodamine123 (Rh123) cell exclusion method in LS180 cells
Assay type: cell-based
Conditions: 1b, 1g versus garcinol (1a), 2b versus isogarcinol (2a)
Method: All synthesized compounds were screened for their ability to induce Pgp by using rhodamine123 (Rh123) cell exclusion method. In this method, the Pgp function was evaluated in terms of rhodamine 123 (Rh123) accumulations and efflux. Briefly, the protocol used is as follows: Colorectal LS180 cells Colorectal LS-180 cells [obtained from ECACC (European Collection of Cell Cultures) catalogue number: 87021202; passage number 52] were seeded at a density of 2×10^4 per well of 96 well plate and were allowed to grow for next 24 h. Cells were further incubated with the test compounds, and were diluted to a final concentration of 100 nM and rifampicin (standard) to a final concentration of 10 μM in complete media for 48 h. The final concentration of DMSO was kept at 0.1%. Drugs were removed and cells were incubated with HANKS buffer for 40 minutes before further incubation with HANKS buffer (containing 10 μM of Rh123 as a Pgp substrate) for 90 minutes. […] A total of 100 μl of lysate was used for reading fluorescence of Rh123 at 485 nm/529 nm. Samples were normalized by dividing fluorescence of each sample with total protein present in the lysate. […] EC50 was determined by plotting fluorescence of Rh123 against concentration of compound.

C=C(C)C(CC=C(C)C)CC12CC(CC=C(C)C)C(C)(C)C(CC=C(C)C)(C(=O)C(C(=O)c3ccc(OCc4ccccc4[N+](=O)[O-])c(OCc4ccccc4[N+](=O)[O-])c3)=C1O)C2=O (stereo not shown) [Compound 1g, 3′,4′-di-[O-(2″-nitro-benzyl)]-garcinol]
Pgp induction activity compared to parent natural product: better
